Biological target: URAT1 (Homo sapiens (Human), UniProt Q96S37)
Test: URAT1-model assay, 14C-uric acid transport in HEK293/URAT1-model cells
Assay type: cell-based
Experimental: HEK293 human embryonic kidney cells (ATCC #CRL-1573) were propagated in EMEM tissue culture medium as described by ATCC in an atmosphere of 5% C02 and 95% air. Transfections of HEK293 cells with a model URAT1 construct was performed using L2000 transfection reagent (Invitrogen) as described by the manufacturer. After 24 h the transfected cells were split into 10 cm tissue culture plates and grown for 1 day after which the medium was replaced with fresh growth medium containing G418 (Gibco) at 0.5 mg/ml final concentration. Drug-resistant colonies were selected after approximately 8 days and then tested for ^14C-uric acid transport activity. The HEK293/URAT1-model cells are plated on Poly-D-Lysine Coated 96-well Plates at a density of 125,000 cells per well.
Cells were grown overnight (20-26 hours) at 37° C. in an incubator. Plates were allowed to come to room temperature and media was washed out with one wash of 250 μl of Wash Buffer (125 mM Na Gluconate, 10 mM Hepes ph 7.3). Compound or vehicle is added in assay buffer with ^14C-uric acid for a final concentration of 125 μM Uric Acid with a specific activity of 54 mCi/mmol. […] Plates are then read on the TopCount Plate Reader and an EC50 value generated. […]

By UniProt entry, the sequences of proteins in these tests, tags left out.
UniProt Q96S37, whole entry, species assumed: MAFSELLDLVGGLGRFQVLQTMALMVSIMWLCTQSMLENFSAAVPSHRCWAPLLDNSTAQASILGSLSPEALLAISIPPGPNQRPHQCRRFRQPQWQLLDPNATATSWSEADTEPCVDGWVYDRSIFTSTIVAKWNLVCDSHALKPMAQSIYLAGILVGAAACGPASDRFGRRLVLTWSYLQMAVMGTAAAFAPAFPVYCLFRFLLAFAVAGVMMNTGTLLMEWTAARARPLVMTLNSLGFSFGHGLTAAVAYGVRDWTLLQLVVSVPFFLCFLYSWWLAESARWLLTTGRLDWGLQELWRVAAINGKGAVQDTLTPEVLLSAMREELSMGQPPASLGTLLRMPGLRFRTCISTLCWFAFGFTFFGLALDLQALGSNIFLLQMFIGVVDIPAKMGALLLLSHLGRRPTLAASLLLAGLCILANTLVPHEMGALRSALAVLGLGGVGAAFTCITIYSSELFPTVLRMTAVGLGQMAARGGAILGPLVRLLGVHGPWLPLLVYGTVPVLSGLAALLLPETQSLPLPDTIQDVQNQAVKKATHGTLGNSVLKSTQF

SMILES: CC(C)(Sc1ncccc1-c1ccc(C#N)c2ccccc12)C(=O)O [Example 4A, 2-(3-(4-Cyanonaphthalen-1-yl)pyridin-2-ylthio)-2-methylpropanoic acid]
- EC50: 50 to 500 nM

From patent US10919858B2, “Thioacetate compounds, compositions and methods of use” (ARDEA BIOSCIENCES, INC., priority 2010, dated 2021)
